# Laboratory results: patent US20130004936A1, “SUPERCOOLING PROMOTING AGENT” (National University Corporation Hokkaido Universit, priority 2010, published 2013)
# How the values were obtained:
# Format in all cases: physicochemical
# [1] = Supercooling activity, droplets on cooled copper plate, silver iodide as ice nucleus substance; settings: 0.1 mass % substance; 10 mM AgI; cooling 0.2° C./min
# Protocol: (§1) In the present invention, a supercooling activity (also referred to as ice nucleus formation inhibitory activity) was measured by the following method. That is, an object to be measured was mixed at […] in a buffer containing an ice nucleus substance to prepare a solution, and many 2-μL liquid droplets of the solution were placed on a copper plate where the temperature could be controlled. The copper plate was cooled at 0.2° C./min, and the number of frozen liquid droplets was visually observed. The temperature at which 50% of the liquid droplets were frozen was defined as a freezing temperature, and a difference between the freezing temperature of the solution including the object to be measured and the ice nucleus substance and the freezing temperature of a solution including only the ice nucleus substance and the buffer (control) (INT50 (° C.)) was defined as a supercooling activity. As the buffer, a 50 mM potassium phosphate buffer (pH 7.0) was used. […]
# [2] = test system: dead bacterial cells of an ice nucleation active bacterium Xanthomonas campestris; assay: Supercooling activity, droplets on cooled copper plate, Xanthomonas campestris as ice nucleus substance; settings: 0.1 mass % substance; 2 mg/mL dead X. campestris cells; cooling 0.2° C./min
# Protocol: as §1
# [3] = Supercooling activity, droplets on cooled copper plate, phloroglucinol as ice nucleus substance; settings: 0.1 mass % substance; 120 mM phloroglucinol; cooling 0.2° C./min
# Protocol: as §1
# [4] = test system: dead bacterial cells of an ice nucleation active bacterium (Erwinia ananas); assay: Supercooling activity (ice nucleus formation inhibitory activity), 2-μL droplets on cooled copper plate, Erwinia ananas as ice nucleus substance; settings: 0.1 mass % substance; 2 mg/mL dead E. ananas cells; cooling 0.2° C./min; temperature at which 50% of droplets froze
# Protocol: as §1, with “activity.” for “activity. As the buffer, a 50 mM potassium phosphate buffer (pH 7.0) was used.”
# The water suspension of the crude extract was centrifuged at 20° C. and 14,000 G, and the supernatant was collected. […] Supercooling activities of the parts were measured by the above-mentioned method. […]
# The fractions K to S obtained above were analyzed by high-performance liquid chromatography (column: PC hydrophilic interaction chromatography column (HILIC), solvent: acetonitrile:water=9:1, flow rate: 1 mL/min, detector: UV 280 nm). […]
substance,measurement,setting,value
catechin,freezing temperature (INT50),[1],−4.7 °C
same,freezing temperature (INT50),[2],−8.1 °C
same,freezing temperature (INT50),[3],−8.3 °C
same,freezing temperature (INT50),[4],−5.7 °C
